Results published in patent publication US20140271930A1, “NONINVASIVE METHOD FOR MEASURING METABOLITES FOR SKIN HEALTH” (priority 2013, published 2014).
Marks after values point to notes of the source that are not given here.

Tested on: scalp of dandruff and non-dandruff subjects
Assay: Metabolite expression profiling (LC/MS/MS, GC/MS/MS) of scalp D-Squame tape strip extracts: non-dandruff, dandruff baseline, dandruff after 3 weeks anti-dandruff shampoo
Assay type: in vivo, human

Structure (SMILES): CCCCCCCCCCCCCCC(C)C(=O)O (stereo not drawn) [2-methylpalmitate]
- Mean Values WEEK 3 TRT Sel (dandruff subjects after 3 weeks treatment with Sel shampoo, metabolite level in scalp tape strip extract): 0.1469
- Mean Values WEEK 3 TRT ZPT (dandruff subjects after 3 weeks treatment with ZPT shampoo, metabolite level in scalp tape strip extract): 0.2049
- Fold Change Wk 3 Sel vs Dandruff Baseline (metabolite level in scalp tape strips, standardized to soluble protein, dandruff subjects after 3 weeks 1% selenium sulfide shampoo vs own baseline): 0.1* fold
- Fold Change Wk 3 ZPT vs Dandruff Baseline (metabolite level in scalp tape strips, standardized to soluble protein, dandruff subjects after 3 weeks 1% zinc pyrithione shampoo vs own baseline): 0.17* fold
- Fold Change Wk 3 ZPT vs Non-Dan Baseline (metabolite level in scalp tape strips, dandruff subjects after 3 weeks 1% ZPT shampoo vs non-dandruff subjects): 0.2* fold
- Fold Change Wk 3 Sel vs Non-Dan Baseline (metabolite level in scalp tape strips, dandruff subjects after 3 weeks 1% selenium sulfide shampoo vs non-dandruff subjects): 0.14* fold
